Test system: HepatoPac™-Kupffer cell co-cultures
Assay: IL-6 secretion after cytokine exposure of HepatoPac-Kupffer cell co-cultures
Type: cell-based, human
Settings: 2 or 4 day treatment
Experimental: Cultures were exposed to IL-2, IL-1B and TNF-α and secretion of IL-6 into the culture supernatant was measured. […] IL-2 and TNF-α had no effect on IL-6 secretion.

IL-2: cytokine
IL-6 secretion into the culture supernatant: no effect

Reference: patent US20160363584A1, “SYSTEMS AND METHODS FOR STUDYING INFLAMMATION-DRUG INTERACTIONS” (Hepregen Corporation, priority 2012, published 2016)
